target: RORc ligand binding domain (Homo sapiens (Human), UniProt P51449); assay: In Vitro RORc Ligand Binding Assay; settings: radioligand 25-[3H]hydroxycholesterol

Protein sequences, listed by entry. Tags and fused reporters are not part of them. Residues count along the entry.
UniProt P51449, 269-508: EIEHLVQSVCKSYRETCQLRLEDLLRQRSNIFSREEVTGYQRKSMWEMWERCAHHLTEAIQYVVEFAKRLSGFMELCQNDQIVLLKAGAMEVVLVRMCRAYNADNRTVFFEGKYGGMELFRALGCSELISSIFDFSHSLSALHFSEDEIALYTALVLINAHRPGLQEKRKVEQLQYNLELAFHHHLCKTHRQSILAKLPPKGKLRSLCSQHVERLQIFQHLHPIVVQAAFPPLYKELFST

Compound	IC50 [nM]
CCN(C[C@@]12CC[C@@H](c3cc(-c4c(F)cccc4F)nnc31)C2(C)C)S(=O)(=O)c1cc(F)ccc1F [Compound 146, N-(((5R,8S)-3-(2,6-difluorophenyl)-9,9-dimethyl-5,6,7,8-tetrahydro-5,8-methanocinnolin-8-yl)methyl)-N-ethyl-2,5-difluorobenzenesulfonamide]	7.9
CCN(C[C@@]12CC[C@@H](c3cc(-c4c(F)cccc4F)nnc31)C2(C)C)C(=O)CC1Oc2ccccc2NC1=O (stereo partly drawn) [Compound 60, N-(((5R,8S)-3-(2,6-difluorophenyl)-9,9-dimethyl-5,6,7,8-tetrahydro-5,8-methanocinnolin-8-yl)methyl)-N-ethyl-2-(3-oxo-3,4-dihydro-2H-benzo[b][1,4]oxazin-2-yl)acetamide]	13.2
CCN(C[C@@]12CC[C@@H](c3cc(-c4c(F)cccc4F)nnc31)C2(C)C)C(=O)C1CCCN(C(N)=O)C1 (stereo partly drawn) [Compound 59, N3-(((5R,8S)-3-(2,6-difluorophenyl)-9,9-dimethyl-5,6,7,8-tetrahydro-5,8-methanocinnolin-8-yl)methyl)-N3-ethylpiperidine-1,3-dicarboxamide]	81.2
CCN(C(=O)OCc1ccccc1)[C@@]12CC[C@@H](c3cc(-c4c(F)cccc4F)nnc31)C2(C)C [Compound 14, benzyl ((5R,8R)-3-(2,6-difluorophenyl)-9,9-dimethyl-5,6,7,8-tetrahydro-5,8-methanocinnolin-8-yl)(ethyl)carbamate]	29.6
CCN(C[C@@]12CC[C@@H](c3cc(-c4c(F)cccc4F)nnc31)C2(C)C)C(=O)Cc1nnn[nH]1 [Compound 51, N-(((5R,8S)-3-(2,6-difluorophenyl)-9,9-dimethyl-5,6,7,8-tetrahydro-5,8-methanocinnolin-8-yl)methyl)-N-ethyl-2-(1H-tetrazol-5-yl)acetamide]	44.2
CCN(C[C@@]12CC[C@@H](c3cc(-c4c(F)cccc4F)nnc31)C2(C)C)C(=O)c1nc(N)n[nH]1 [Compound 113, 3-amino-N-(((5R,8S)-3-(2,6-difluorophenyl)-9,9-dimethyl-5,6,7,8-tetrahydro-5,8-methanocinnolin-8-yl)methyl)-N-ethyl-1H-1,2,4-triazole-5-carboxamide]	56.4
CCN(C[C@@]12CC[C@@H](c3cc(-c4c(F)cccc4F)nnc31)C2(C)C)C(=O)C1CCN(C(N)=O)CC1 [Compound 108, N4-(((5R,8S)-3-(2,6-difluorophenyl)-9,9-dimethyl-5,6,7,8-tetrahydro-5,8-methanocinnolin-8-yl)methyl)-N4-ethylpiperidine-1,4-dicarboxamide]	163
CCN(C[C@@]12CC[C@@H](c3cc(-c4c(F)cccc4F)nnc31)C2(C)C)C(=O)c1c[nH]cn1 [Compound 78, N-(((5R,8S)-3-(2,6-difluorophenyl)-9,9-dimethyl-5,6,7,8-tetrahydro-5,8-methanocinnolin-8-yl)methyl)-N-ethyl-1H-imidazole-4-carboxamide]	31.4
CCN(C[C@@]12CC[C@@H](c3cc(-c4c(F)cccc4F)nnc31)C2(C)C)C(=O)c1ccc(OCc2noc(C)n2)cc1 [Compound 81, N-(((5R,8S)-3-(2,6-difluorophenyl)-9,9-dimethyl-5,6,7,8-tetrahydro-5,8-methanocinnolin-8-yl)methyl)-N-ethyl-4-((5-methyl-1,2,4-oxadiazol-3-yl)methoxy)benzamide]	14.7
CCN(C[C@@]12CC[C@@H](c3cc(-c4c(F)cccc4F)nnc31)C2(C)C)C(=O)c1ccc(-n2ccnc2)nc1 [Compound 111, N-(((5R,8S)-3-(2,6-difluorophenyl)-9,9-dimethyl-5,6,7,8-tetrahydro-5,8-methanocinnolin-8-yl)methyl)-N-ethyl-6-(1H-imidazol-1-yl)nicotinamide]	47.8
CCN(C[C@@]12CC[C@@H](c3cc(-c4c(F)cccc4F)nnc31)C2(C)C)C(=O)C1CCCN1C(N)=O (stereo partly drawn) [Compound 50, N2-(((5R,8S)-3-(2,6-difluorophenyl)-9,9-dimethyl-5,6,7,8-tetrahydro-5,8-methanocinnolin-8-yl)methyl)-N2-ethylpyrrolidine-1,2-dicarboxamide]	115
CCN(C[C@@]12CC[C@@H](c3cc(-c4c(F)cccc4F)nnc31)C2(C)C)C(=O)CCN1CCN(C(N)=O)CC1 [Compound 95, 4-(3-((((5R,8S)-3-(2,6-difluorophenyl)-9,9-dimethyl-5,6,7,8-tetrahydro-5,8-methanocinnolin-8-yl)methyl)(ethyl)amino)-3-oxopropyl)piperazine-1-carboxamide]	152
CCN(C[C@@]12CC[C@@H](c3cc(-c4c(F)cccc4F)nnc31)C2(C)C)C(=O)c1cc(-c2cn(C)nc2C)on1 [Compound 96, N-(((5R,8S)-3-(2,6-difluorophenyl)-9,9-dimethyl-5,6,7,8-tetrahydro-5,8-methanocinnolin-8-yl)methyl)-5-(1,3-dimethyl-1H-pyrazol-4-yl)-N-ethylisoxazole-3-carboxamide]	10.4

Other lines, results leading:

IC50 [nM]	Compound
4.6	CCN(C[C@@]12CC[C@@H](c3cc(-c4c(F)cccc4F)nnc31)C2(C)C)C(=O)c1ncco1 [Compound 165, N-(((5R,8S)-3-(2,6-difluorophenyl)-9,9-dimethyl-5,6,7,8-tetrahydro-5,8-methanocinnolin-8-yl)methyl)-N-ethyloxazole-2-carboxamide]
61.9	CCN(C[C@@]12CC[C@@H](c3cc(-c4c(F)cccc4F)nnc31)C2(C)C)C(=O)CN1CCS(=O)(=O)CC1 [Compound 170, N-(((5R,8S)-3-(2,6-difluorophenyl)-9,9-dimethyl-5,6,7,8-tetrahydro-5,8-methanocinnolin-8-yl)methyl)-2-(1,1-dioxidothiomorpholino)-N-ethylacetamide]
19.3	CCN(C[C@@]12CC[C@@H](c3cc(-c4c(F)cccc4F)nnc31)C2(C)C)C(=O)Cc1n[nH]c(=O)[nH]1 [Compound 162, N-(((5R,8S)-3-(2,6-difluorophenyl)-9,9-dimethyl-5,6,7,8-tetrahydro-5,8-methanocinnolin-8-yl)methyl)-N-ethyl-2-(5-oxo-4,5-dihydro-1H-1,2,4-triazol-3-yl)acetamide]
6.8	CCN(C(=O)c1coc(C(C)(C)O)n1)[C@H](C)[C@@]12CC[C@@H](c3cc(-c4c(F)cccc4F)nnc31)C2(C)C (stereo in doubt) [Compound 206, N-[1-[5-(2,6-difluorophenyl)-11,11-dimethyl-3,4-diazatricyclo[6.2.1.02,7]undeca-2,4,6-trien-1-yl]ethyl]-N-ethyl-2-(1-hydroxy-1-methyl-ethyl)oxazole-4-carboxamide]
45	CC1(C)[C@H]2CC[C@]1(CN(CC(F)F)C(=O)c1coc(CS(C)(=O)=O)n1)c1nnc(-c3c(F)cccc3F)cc12 [Compound 181, N-(2,2-difluoroethyl)-N-[[(1S,8R)-5-(2,6-difluorophenyl)-11,11-dimethyl-3,4-diazatricyclo[6.2.1.02,7]undeca-2(7),3,5-trien-1-yl]methyl]-2-(methylsulfonylmethyl)oxazole-4-carboxamide]
1.6	CCN(C(=O)c1coc(C(C)(C)O)n1)[C@@H](C)[C@@]12CC[C@@H](c3cc(-c4c(F)cccc4F)nnc31)C2(C)C (stereo in doubt) [Compound 207, N-[1-[5-(2,6-difluorophenyl)-11,11-dimethyl-3,4-diazatricyclo[6.2.1.02,7]undeca-2,4,6-trien-1-yl]ethyl]-N-ethyl-2-(1-hydroxy-1-methyl-ethyl)oxazole-4-carboxamide]
